# Reference: article PMC9107402, “Evaluation of CYP2C19 activity using microdosed oral omeprazole in humans” (European Journal of Clinical Pharmacology, 2022)
# Marks after values point to notes of the source that are not given here.
# Tests used:
# CYP2C19 [1] = test: Omeprazole hydroxylation index (molar ratio omeprazole/5-OH-omeprazole in plasma at 3 h); assay type: in vivo, human; settings: for hydroxylation index, factor of variation / hydroxylation index, range: alone and during fluconazole and rifampicin
# CYP2C19 [2] = settings: human, in vivo
# Description: This was an open-label clinical trial with fixed sequence design consisting of a total of seven inpatient study days and eight short visits for each participant.
# The CYP2C19 perpetrator fluconazole (Fluconazol HEXAL® 200 mg, HEXAL) was given for 5 days in oral doses of 400 mg on day 1 and 200 mg on days 2 to 5. […] A diary was used to ensure correct intake of fluconazole and rifampicin at home.
# Blood samples were centrifuged for 10 min at 2500 g and 4 °C, and separated plasma was distributed into 4 aliquots, each stored at − 20 °C until analysis.
# The statistical analysis was performed using Prism 8.4 (GraphPad Software Inc., La Jolla, CA, USA).
smiles,measurement,setting,value
COc1ccc2[nH]c([S+]([O-])Cc3ncc(C)c(OC)c3C)nc2c1 (stereo not drawn) [omeprazole],"hydroxylation index, factor of variation",CYP2C19 [1]; 100 µg omeprazole,419
same,"hydroxylation index, range",CYP2C19 [1]; 100 µg omeprazole,0.2600–108.9
same,omeprazole hydroxylation index,"CYP2C19 [1]; 100 µg omeprazole, baseline, All (n = 20), geometric mean",1.26
same,omeprazole hydroxylation index,"CYP2C19 [1]; 100 µg omeprazole, baseline, EM (n = 6)",1.20
same,omeprazole hydroxylation index,"CYP2C19 [1]; 100 µg omeprazole, baseline, IM (n = 6)",1.18
same,omeprazole hydroxylation index,"CYP2C19 [1]; 100 µg omeprazole, baseline, PM (n = 1)",22.8
same,omeprazole hydroxylation index,"CYP2C19 [1]; 100 µg omeprazole, baseline, UM (n = 7)",0.92
same,omeprazole hydroxylation index,"CYP2C19 [1]; 100 µg omeprazole, fluconazole, All (n = 20), geometric mean",49.3*
same,omeprazole hydroxylation index,"CYP2C19 [1]; 100 µg omeprazole, fluconazole, EM (n = 6)",58.4
same,omeprazole hydroxylation index,"CYP2C19 [1]; 100 µg omeprazole, fluconazole, IM (n = 6)",49.2
same,omeprazole hydroxylation index,"CYP2C19 [1]; 100 µg omeprazole, fluconazole, PM (n = 1)",65.1
same,omeprazole hydroxylation index,"CYP2C19 [1]; 100 µg omeprazole, fluconazole, UM (n = 7)",41.0
same,omeprazole hydroxylation index,"CYP2C19 [1]; 100 µg omeprazole, rifampicin, All (n = 20), geometric mean",0.55
same,omeprazole hydroxylation index,"CYP2C19 [1]; 100 µg omeprazole, rifampicin, EM (n = 6)",0.51
same,omeprazole hydroxylation index,"CYP2C19 [1]; 100 µg omeprazole, rifampicin, IM (n = 6)",0.54
same,omeprazole hydroxylation index,"CYP2C19 [1]; 100 µg omeprazole, rifampicin, PM (n = 1)",3.70
same,omeprazole hydroxylation index,"CYP2C19 [1]; 100 µg omeprazole, rifampicin, UM (n = 7)",0.41
same,"hydroxylation index, factor of variation",CYP2C19 [1]; 20 mg omeprazole,278
same,"hydroxylation index, range",CYP2C19 [1]; 20 mg omeprazole,0.1660–46.22
same,omeprazole hydroxylation index,"CYP2C19 [1]; 20 mg omeprazole, baseline, All (n = 20), geometric mean",2.47
same,omeprazole hydroxylation index,"CYP2C19 [1]; 20 mg omeprazole, baseline, EM (n = 6)",2.34
same,omeprazole hydroxylation index,"CYP2C19 [1]; 20 mg omeprazole, baseline, IM (n = 6)",2.31
same,omeprazole hydroxylation index,"CYP2C19 [1]; 20 mg omeprazole, baseline, PM (n = 1)",21.7
same,omeprazole hydroxylation index,"CYP2C19 [1]; 20 mg omeprazole, baseline, UM (n = 7)",2.0
same,omeprazole hydroxylation index,"CYP2C19 [1]; 20 mg omeprazole, fluconazole, All (n = 20), geometric mean",28.7*
same,omeprazole hydroxylation index,"CYP2C19 [1]; 20 mg omeprazole, fluconazole, EM (n = 6)",29.8
same,omeprazole hydroxylation index,"CYP2C19 [1]; 20 mg omeprazole, fluconazole, IM (n = 6)",36.6
same,omeprazole hydroxylation index,"CYP2C19 [1]; 20 mg omeprazole, fluconazole, PM (n = 1)",44.0
same,omeprazole hydroxylation index,"CYP2C19 [1]; 20 mg omeprazole, fluconazole, UM (n = 7)",21.8
same,omeprazole hydroxylation index,"CYP2C19 [1]; 20 mg omeprazole, rifampicin, All (n = 20), geometric mean",0.50*
same,omeprazole hydroxylation index,"CYP2C19 [1]; 20 mg omeprazole, rifampicin, EM (n = 6)",0.55
same,omeprazole hydroxylation index,"CYP2C19 [1]; 20 mg omeprazole, rifampicin, IM (n = 6)",0.47
same,omeprazole hydroxylation index,"CYP2C19 [1]; 20 mg omeprazole, rifampicin, PM (n = 1)",5.46
same,omeprazole hydroxylation index,"CYP2C19 [1]; 20 mg omeprazole, rifampicin, UM (n = 7)",0.32
same,relative bioavailability (Frel) of the microdose,CYP2C19 [2],1.02
same,VZ,"CYP2C19 [2]; po, 100 ug",28.3 L
